Earlier results in US11746374B2, “Methods and platform for screening and selecting metabolites and their receptors” (BOARD OF REGENTS, THE UNIVERSITY OF TEXAS SYSTEM, priority 2017, dated 2023).

Chains of the proteins cited; added tags and fusions are not shown.
UniProt P34972, whole entry: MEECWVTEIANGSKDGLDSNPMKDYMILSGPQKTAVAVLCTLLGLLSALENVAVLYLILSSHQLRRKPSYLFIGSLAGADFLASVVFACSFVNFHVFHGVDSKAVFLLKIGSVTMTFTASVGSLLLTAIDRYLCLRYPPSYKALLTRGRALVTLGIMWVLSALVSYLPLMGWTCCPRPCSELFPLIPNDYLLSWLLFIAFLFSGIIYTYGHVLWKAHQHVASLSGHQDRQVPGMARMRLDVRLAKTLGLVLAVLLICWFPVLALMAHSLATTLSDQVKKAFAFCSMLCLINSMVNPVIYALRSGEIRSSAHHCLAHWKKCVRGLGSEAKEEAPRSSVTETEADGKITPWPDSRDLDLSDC

Target: wild-type CB2 receptor (Homo sapiens, UniProt P34972)
Details: Pertwee 2008; cited from earlier work

SMILES: C=C(C)[C@@H]1CCC(C)=C[C@H]1c1c(O)cc(CCCCC)cc1O [CBD, cannabidiol]
- affinity for wild-type CB2 receptor: micromolar affinities
